For test [1], the system named is CHO. Nature of the test: Ratio of Ki for human mu opioid receptor to Ki for human kappa opioid receptor expressed in CHO cells. It is filed as cell-based.
The test system of test [2] is CHO. Nature of the test: Ratio of Ki for human delta opioid receptor to Ki for human kappa opioid receptor expressed in CHO cells. It is filed as cell-based.

In the case of `Cc1nc2cc3c(cc2[nH]1)[C@@]1(C)CCN(CC2CC2)C(C3)[C@@H]1C`, the values for the Ratio Ki in test [1] and in test [2] were 15 and 360, respectively.

Regarding `C[C@H]1C2Cc3cc4nn[nH]c4cc3[C@@]1(C)CCN2CC1CC1`, the Ratio Ki in test [1] worked out at 12; in test [2], 63.

With `C[C@H]1C2Cc3cc4nc[nH]c4cc3[C@@]1(C)CCN2CC1CC1`, the Ratio Ki in test [1] amounted to 5; in test [2], 81.

For the compound `C[C@H]1C2Cc3ccc4[nH]nnc4c3[C@@]1(C)CCN2CC1CC1`, the Ratio Ki in test [1] came to 6; in test [2], 200.

(Values after ChEMBL document CHEMBL1136834 (Bioorg Med Chem Lett, 2009).)
